The source of these data is article PMC7997635 (Journal of medicinal chemistry, 2021).

Common to all, as to assay type: cell-based, Plasmodium falciparum
One assay concerns Pf Dd2-GC03. Description: PfCRT gene edited isogenic line Dd2-GC03.
The test system of a further assay is P. falciparum Dd2. In words: SYBR Green parasite growth inhibition assay, 72 h.
In another assay the test system is P. falciparum 3D7. Description: SYBR Green parasite growth inhibition assay, 72 h.
Assay [1] relates to Hz formation in NF54 parasites. Description: Cellular heme fractionation assay.

`Cc1ccccc1-n1nnnc1C(c1cncnc1)N(Cc1cccc(C(F)(F)F)c1)C1CC1` (centres unmarked) [Compound 10, N-(Pyrimidin-5-yl(1-(o-tolyl)-1H-tetrazol-5-yl)methyl)-N-(3-(trifluoromethyl)benzyl)cyclopropanamine]: in the assay on Pf Dd2-GC03, the “Fold Diff Dd2-GC03 relative to Dd2-GC03” value amounted to 1.0. The “Fold Diff in EC50, Dd2 relative to 3D7” value in the assay with P. falciparum Dd2 is given as 3–5 fold. Moreover, in the assay on P. falciparum 3D7, the “Fold Diff, 3D7 relative to 3D7” value is on record as 1.0. Moreover, the “fold decrease in Hz heme Fe” value in assay [1] (at 3× EC50 vs no-drug control) is 2 fold. Besides, the “levels of free heme relative to CQ” value in assay [1] (fold higher than CQ across the dose response range) is reported as 3 – 4 fold.
